{
  "sequences": {"note": "The chains behind the UniProt entries cited, without tags or fusion partners.", "UniProt P05186, whole entry": "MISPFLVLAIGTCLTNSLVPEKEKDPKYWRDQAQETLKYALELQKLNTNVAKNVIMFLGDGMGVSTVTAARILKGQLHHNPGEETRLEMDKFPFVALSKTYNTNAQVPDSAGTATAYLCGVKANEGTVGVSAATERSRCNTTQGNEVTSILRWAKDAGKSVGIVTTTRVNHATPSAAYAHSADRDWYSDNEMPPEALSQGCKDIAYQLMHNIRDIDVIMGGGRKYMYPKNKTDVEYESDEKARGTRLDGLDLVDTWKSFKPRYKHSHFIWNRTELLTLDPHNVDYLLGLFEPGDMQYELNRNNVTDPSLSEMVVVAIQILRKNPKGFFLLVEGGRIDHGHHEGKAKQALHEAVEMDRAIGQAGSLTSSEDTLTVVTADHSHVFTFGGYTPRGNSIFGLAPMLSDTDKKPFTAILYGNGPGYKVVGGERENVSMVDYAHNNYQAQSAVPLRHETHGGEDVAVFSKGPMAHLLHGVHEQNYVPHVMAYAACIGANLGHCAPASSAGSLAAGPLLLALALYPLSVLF"},
  "source": "PubChem BioAssay AID813",
  "about": "(Sanford-Burnham Center for Chemical Genomics, 2007)",
  "note": "The entries are a selection whose mix differs from that of the whole data set. Some tests of the compounds listed are not included; inactive here does not mean inactive elsewhere. Calls of active or inactive are those of the source.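 How the source made its calls: active means activation factor of at least 2 at 20 µM, relative to controls; inactive means the rest.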",
  "data": [
    {"target": "Alkaline phosphatase, tissue-nonspecific isozyme (Homo sapiens) (UniProt P05186)", "test": "human TNAP enzyme activators, primary screen, biochemical, luminescent, intermediate phosphate acceptor level (AID 813)", "conditions": "purified TNAP, CDP-star luminescence, 100 mM DEA, 30 min; at 20 µM; stronger effect = higher value; scale: 0 levamisole-inhibited, 1 vehicle-only enzyme", "values": [
      {"smiles": "O=C(OC1CN2CCC1CC2)C(CO)(c1ccccc1)c1ccccc1", "note": "(configuration not stated)", "activation factor": "inactive: 1"},
      {"smiles": "CN(C)c1cccc(C(=O)NCC2(N(C)C)CCCCC2)c1", "activation factor": "inactive: 1"}
    ]}
  ]
}
